This passage reports IC50 results from BindingDB's records for patent US20250115578 (Chengdu Kanghong Pharmaceutical, 2025).

Amino acid sequences for entries named in this document (tags omitted).
UniProt Q9Y5Y9, whole entry: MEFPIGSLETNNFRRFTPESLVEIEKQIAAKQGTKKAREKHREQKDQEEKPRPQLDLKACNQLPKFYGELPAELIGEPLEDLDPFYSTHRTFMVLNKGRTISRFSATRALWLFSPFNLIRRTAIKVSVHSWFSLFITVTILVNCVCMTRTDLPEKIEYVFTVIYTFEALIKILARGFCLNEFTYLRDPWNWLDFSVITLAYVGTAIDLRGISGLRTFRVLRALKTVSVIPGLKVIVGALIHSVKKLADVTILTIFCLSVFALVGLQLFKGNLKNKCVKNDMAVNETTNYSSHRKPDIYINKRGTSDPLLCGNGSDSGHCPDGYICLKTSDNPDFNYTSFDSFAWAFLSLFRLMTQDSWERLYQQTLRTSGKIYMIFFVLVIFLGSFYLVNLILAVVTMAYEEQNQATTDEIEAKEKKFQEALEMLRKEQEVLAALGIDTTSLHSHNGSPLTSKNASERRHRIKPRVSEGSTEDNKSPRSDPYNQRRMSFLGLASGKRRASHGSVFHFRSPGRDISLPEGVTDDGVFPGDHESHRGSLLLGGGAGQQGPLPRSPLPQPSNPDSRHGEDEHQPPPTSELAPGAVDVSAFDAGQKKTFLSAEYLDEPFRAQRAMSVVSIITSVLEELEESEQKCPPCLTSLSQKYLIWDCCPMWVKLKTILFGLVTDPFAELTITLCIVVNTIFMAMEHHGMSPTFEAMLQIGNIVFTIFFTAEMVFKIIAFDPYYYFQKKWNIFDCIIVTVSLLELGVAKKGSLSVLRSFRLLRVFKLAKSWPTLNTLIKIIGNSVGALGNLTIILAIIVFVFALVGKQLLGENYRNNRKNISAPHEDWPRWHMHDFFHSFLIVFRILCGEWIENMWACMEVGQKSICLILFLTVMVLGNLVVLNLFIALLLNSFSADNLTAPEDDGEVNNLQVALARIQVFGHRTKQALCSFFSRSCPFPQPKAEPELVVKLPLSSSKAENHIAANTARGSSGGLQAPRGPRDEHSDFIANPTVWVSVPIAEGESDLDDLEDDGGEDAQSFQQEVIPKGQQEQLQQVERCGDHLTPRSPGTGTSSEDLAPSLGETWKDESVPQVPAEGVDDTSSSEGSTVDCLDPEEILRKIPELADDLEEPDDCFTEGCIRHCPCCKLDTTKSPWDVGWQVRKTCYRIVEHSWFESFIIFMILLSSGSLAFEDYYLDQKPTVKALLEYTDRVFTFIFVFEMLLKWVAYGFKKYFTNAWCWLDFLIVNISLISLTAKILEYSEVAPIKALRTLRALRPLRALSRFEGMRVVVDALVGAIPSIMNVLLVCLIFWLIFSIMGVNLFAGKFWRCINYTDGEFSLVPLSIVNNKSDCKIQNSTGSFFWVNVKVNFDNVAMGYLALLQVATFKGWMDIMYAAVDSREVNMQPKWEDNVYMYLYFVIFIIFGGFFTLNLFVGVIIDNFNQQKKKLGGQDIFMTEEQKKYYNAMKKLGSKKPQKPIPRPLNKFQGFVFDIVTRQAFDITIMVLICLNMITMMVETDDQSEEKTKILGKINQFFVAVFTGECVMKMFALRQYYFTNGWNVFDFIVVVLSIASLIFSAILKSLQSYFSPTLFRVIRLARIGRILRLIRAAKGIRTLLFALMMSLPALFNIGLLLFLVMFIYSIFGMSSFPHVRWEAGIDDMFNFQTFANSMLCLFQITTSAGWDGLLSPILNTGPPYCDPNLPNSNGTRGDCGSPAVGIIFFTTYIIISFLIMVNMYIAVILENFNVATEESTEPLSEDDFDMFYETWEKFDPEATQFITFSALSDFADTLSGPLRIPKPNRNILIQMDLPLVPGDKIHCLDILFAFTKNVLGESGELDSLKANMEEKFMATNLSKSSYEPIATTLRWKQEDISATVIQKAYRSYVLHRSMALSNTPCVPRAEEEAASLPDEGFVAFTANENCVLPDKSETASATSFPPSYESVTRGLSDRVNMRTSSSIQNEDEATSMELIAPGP

Broadly, the IC50 is the concentration that gives 50% inhibition.

Assay [1] has as its target T1, Sodium channel protein type 10 subunit alpha (Homo sapiens, UniProt Q9Y5Y9). Put plainly: Electrophysiological Assay. The method, then:
Clamped the cell at −80 mV and then depolarized to 10 mV with a square wave lasting 10 ms to get the Nav1.8 current (see FIG. 1 attached). This procedure was repeated every 5 seconds. The maximum current triggered by the square wave was detected, and when it stabilized, the test compounds were perfused, and when the reaction stabilized, the strength of the block was calculated.

In assay [2] the target is T1, Sodium channel protein type 10 subunit alpha. Put plainly: Electrophysiological Assay. The method, then:
A capillary glass pipette (BF150-86-10, Sutter Instruments) was pulled into a recording electrode with a micropipette puller (P97, Sutter Instruments). The micromanipulator (MP285, Sutter Instruments) was manipulated under an inverted microscope (IX71, Olympus) to make the recording electrode contact the cell and negative pressure suction was applied to achieve a GQ seal. Then, rapid capacitance compensation was performed, and negative pressure was continued, cell membrane was broken by suction, and whole cell recording mode was formed. Then the slow capacitance was compensated and the membrane capacitance and series resistance were recorded without leakage compensation. When the whole cell recording current was stabilized, dosing was initiated, and the next concentration was detected after acting 5 minutes of each drug concentration. Multiple cells were independently repeated during the recording period. […] Specifically, 6 concentrations (measuring IC50) or 2 concentrations (preliminary screening) were set for each compound, and the percentage of inhibition of sodium channels was determined by calculating the relative percentage of peak current generated before and after each concentration compound treated cells, and the IC50 value or percentage of inhibition at a specific concentration was calculated using IGOR pro software.
The source holds these as a separate data set.

Consider `Cc1cc(F)ccc1Oc1cc(C(F)(F)F)ccc1C(=O)Nc1cc[nH]c(=O)c1` [US20250115578, Example 32], for which the figures for the IC50 in assay [1] and in assay [2] were 35.1 nM and 16 nM, respectively.
